These results are taken from patent US10328003B2, “Solubilizing agents for active or functional organic compounds” (ISP INVESTMENTS LLC, priority 2015, dated 2019).

The procedure of the series: Different samples of the current solubilizing compound cycloalkyl toluate was combined with available sunscreens Escalol S, avobenzone and oxybenzone at 25° C. […] Solubility was checked for cyclohexyl ester in various sunscreen actives such as bemotrizinol, ethylhexyl triazone, avobenzone & benzophenone-3 in comparison to phenethyl benzoate.

As for “C12-15 alkyl benzoate [reference compound]”, the “Solubility @ 25° C. Avobenzone” value turned out to be 12, the “Solubility @ 25° C. Escalol S” value is listed as 13, the “Solubility @ 25° C. Oxybenzone” value is 15 and the “Solubility percentages of sunscreen active in the solubilizer” value was 4-15%.
